# Binding of CDR-mutated scFvs to a peptide of the spike HR2 region

The target is the same throughout: PDVDLGDISGINAS, from the HR2 region of SARS-CoV-2 spike.

Ab-14 is the parent antibody, in scFv form: VH, then a 15-residue (Gly4Ser)3 linker, then VL. The heavy chain is unchanged in all variants.
VH: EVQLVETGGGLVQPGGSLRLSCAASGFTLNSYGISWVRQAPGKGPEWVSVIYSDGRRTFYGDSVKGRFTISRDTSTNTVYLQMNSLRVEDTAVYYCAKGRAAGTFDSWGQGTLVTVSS
VL: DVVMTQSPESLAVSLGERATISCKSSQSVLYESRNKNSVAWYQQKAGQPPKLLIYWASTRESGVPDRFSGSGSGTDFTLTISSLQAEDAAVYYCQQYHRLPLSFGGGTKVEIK

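The starting antibody came from a phage panning campaign against this peptide. Designed CDR sequences, proposed from the first random library and measured here. Their group label is 14L_GP_Gibbs (GP: Gaussian process model; Gibbs: Gibbs sampling; a sequence that several methods proposed may carry one label only). AlphaSeq pools MATa yeast showing the antibodies with MATalpha yeast showing the peptide. The frequency of each diploid, read from paired DNA barcodes, reflects how well the two displayed proteins bind. Read counts were normalised to the haploid input and turned into Kd by a linear fit to BCL2-family pairs of known affinity, for each replicate. Each pool was mated in six replicate cultures.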

Substitutions are numbered in sequence along the VL above, starting at 1 (not Kabat).
Values are log10 of the apparent Kd in nM; lower means stronger binding.
Replicates are averaged; those with no signal do not enter the mean.
"nd" means that the variant was in the library but no mating with the target was seen in that replicate; the authors take this as a sign of poor binding, and no number exists.
The authors averaged sequences with at least three values out of six and counted those with two or fewer as poor binders.
Empty control strains, which show no peptide, gave a signal in 4% of pairings with all light chain designs; the median was 2.64 and 95% of these signals were weaker than 1.59. No background was subtracted. Also given: how often the same scFv was detected with the empty control strains, with their mean in brackets.
A sequence measured in both rounds can read differently, since the two assays cover different ranges.
The parent sequence was in this pool as ten entries: three were never detected, three once, and four in most replicates, with averages from 0.34 to 2.37.

changes	log10 Kd (nM) by replicate	log10 Kd (nM), mean	signal with controls
S25V S26Y Q27I S28L V29D L30D Y31G E32G S33D W56H T59L	0.90 0.98 0.70 0.19 0.88 0.47	0.69	1/18 (3.44)
S25L L30G N35L S38N W56N E61L S62E	0.55 0.21 0.29 0.58 0.36 0.18	0.36	0/18
S25V S28G V29G S33Q N35Q W56N T59Y	0.35 0.21 0.18 0.11 0.19 0.21	0.21	2/18 (2.23)
S26E Q27P S28L V29Y L30Y E32G S33D W56Q	0.29 -0.04 -0.11 -0.20 -0.14 0.10	-0.02	0/18
S25L Q27M L30M Y31M W56S S58N E61M S62E	0.21 0.23 0.20 0.55 -0.01 0.53	0.29	3/18 (1.98)
S25I Y31M R34L N35M W56H E61I S62W	0.51 1.28 1.56 0.82 0.78 0.45	0.90	1/18 (1.57)
S25L S26Q Q27G V29E Y31G W56S S58D E61C S62E	0.32 0.29 0.03 0.09 0.25 0.33	0.22	1/18 (1.78)
S25I S26M V29E L30Y S33D N37M W56D T59Q E61L	0.15 -0.21 -0.43 -0.45 -0.35 -0.33	-0.27	0/18
K24W S25I N35D W56N	0.31 0.27 0.18 0.13 0.11 0.16	0.19	1/18 (3.51)
S25F V29N S33D K36Q W56N T59Q E61L S62Q Q96D	0.57 0.76 0.31 -0.09 0.42 0.23	0.37	0/18
S26M L30P S33D W56E E61C Q96D	0.70 0.44 0.38 0.34 0.53 0.57	0.49	4/18 (3.59)
S25L S26Q S28M V29E E32M K36C W56D T59Q	0.35 1.19 0.75 0.67 0.45 0.52	0.65	0/18
S25F S26V V29W S38A W56H E61C	0.56 0.37 0.50 0.32 0.57 0.42	0.46	0/18
S25L S26W Q27M L30N Y31G S38A W56S T59Q S62Q	-0.29 -0.37 -0.22 -0.37 -0.33 -0.19	-0.29	1/18 (3.75)
S25V S26M S33D K36A S38N W56N A57G	-0.09 -0.15 -0.25 0.08 0.22 -0.58	-0.13	0/18
S25V S26Q Q27A V29Q L30E E32W W56N S62T	0.21 -0.05 -0.06 -0.14 -0.04 0.03	-0.01	0/18
S25L L30W Y31M E32L W56N T59Y	0.17 -0.15 -0.12 -0.15 0.01 0.14	-0.02	1/18 (1.15)
S25L Q27S V29H S33E N35M K36D W56S T59Q S62M	0.06 -0.01 0.30 -0.19 -0.11 0.01	0.01	0/18
S25L S26D V29G E32G W56E T59Y S103Y	0.43 0.97 0.48 0.93 1.10 0.56	0.75	1/18 (1.81)
S25V Q27M S28L V29D L30D Y31G E32G W56H	0.91 0.45 0.46 0.26 0.00 0.35	0.40	0/18
K24M S25Y V29Y L30G Y31G S33Q W56H T59L S62E	0.68 0.20 0.29 0.11 0.30 0.35	0.32	0/18
V29D K36G S38N W56N E61M S62D	0.81 1.83 1.88 1.18 1.29 1.91	1.48	0/18
S25L S28G V29W W56N T59Q S62H	1.37 0.79 1.09 0.55 1.00 0.99	0.96	0/18
S25W S26E Q27Y Y31G S38A W56S T59Q S62Q	0.44 0.43 0.58 0.28 0.50 0.41	0.44	2/18 (2.84)
S25F L30G E32Q S33E W56D	0.03 -0.13 -0.12 -0.08 -0.26 -0.04	-0.10	2/18 (2.44)
K24F S25M Y31M S33G K36D W56S S62D	0.33 0.05 0.16 0.13 -0.02 0.08	0.12	0/18
S25Y Q27F V29S W56E T59C S62E	1.03 0.83 0.26 0.58 0.46 0.64	0.63	1/18 (2.56)
S25F Q27Y S33E K36Q W56S T59Q S62Q	0.18 0.15 0.00 -0.14 -0.01 0.05	0.04	2/18 (2.78)
S25L S26R V29C S33D S38N W56M T59Q E61C	-0.03 -0.02 -0.11 -0.05 0.03 0.04	-0.02	3/18 (2.53)
S25I S28E L30W W56E T59L S62Q	0.75 0.70 0.52 0.26 0.60 0.57	0.57	3/18 (3.70)
S25L Q27M S28L V29H L30D W56Q S62D	0.36 0.07 0.34 -0.01 0.14 0.44	0.22	1/18 (1.99)
Q27M V29W L30E K36S W56H S62D S103A	0.40 0.15 0.20 -0.17 -0.05 0.17	0.12	0/18
S25V V29E Y31G N37M W56N S62K	0.40 0.36 0.11 0.28 0.33 0.45	0.32	3/18 (2.93)
S25Q Q27M L30M Y31M E32G W56S S58H T59K S62A	2.16 nd nd nd 4.02 3.88	3.36	1/18 (2.53)
S25V S26F Q27I V29E Y31G N37M W56D	0.89 1.11 0.70 1.31 1.07 0.92	1.00	1/18 (2.21)
S25L S26Q Q27N S28Q V29Y L30E N35M W56N E61L S62E	-0.24 0.11 0.15 -0.23 -0.09 0.18	-0.02	2/18 (2.76)
K24H S26Q L30P W56N T59L E61C	0.45 0.06 0.21 0.31 0.10 0.31	0.24	0/18
S25F S26E S28L V29D L30G Y31Q W56N T59Q S62D	0.33 0.21 0.12 0.05 -0.16 0.28	0.14	1/18 (2.31)
S25F S26F V29E Y31D S33M K36D W56N E61L	0.15 0.01 -0.04 -0.02 0.08 0.17	0.06	2/18 (3.07)
S25L S26Q Q27G S28A V29E Y31G W56S S58D	0.39 0.05 0.17 -0.11 0.05 0.07	0.10	0/18
S25M Y31M S33M K36A W56N S62E	0.17 0.15 0.13 -0.16 0.17 0.44	0.15	1/18 (3.54)
S25V S26D V29E L30M Y31L N35W W56S E61I	1.05 0.56 0.95 0.68 0.45 0.66	0.73	1/18 (2.92)
S25L S26Q V29D L30Q N35V S38A W56Q T59V	0.56 0.48 0.62 0.34 0.30 0.80	0.51	0/18
S25A Q27P V29E L30E N35M W56M E61Y S62E	1.39 1.01 1.65 1.66 1.19 1.38	1.38	0/18

Values reported by Li et al. 2023, doi:10.1038/s41467-023-39022-2 (FLAb copy).